From PMC9596378, “Discovery and molecular basis of subtype-selective cyclophilin inhibitors” (Nature Chemical Biology, 2022)

Protein sequences, listed by entry. Tags and fused reporters are not part of them. Residues count along the entry.
UniProt O00748, 27-559 limits assumed: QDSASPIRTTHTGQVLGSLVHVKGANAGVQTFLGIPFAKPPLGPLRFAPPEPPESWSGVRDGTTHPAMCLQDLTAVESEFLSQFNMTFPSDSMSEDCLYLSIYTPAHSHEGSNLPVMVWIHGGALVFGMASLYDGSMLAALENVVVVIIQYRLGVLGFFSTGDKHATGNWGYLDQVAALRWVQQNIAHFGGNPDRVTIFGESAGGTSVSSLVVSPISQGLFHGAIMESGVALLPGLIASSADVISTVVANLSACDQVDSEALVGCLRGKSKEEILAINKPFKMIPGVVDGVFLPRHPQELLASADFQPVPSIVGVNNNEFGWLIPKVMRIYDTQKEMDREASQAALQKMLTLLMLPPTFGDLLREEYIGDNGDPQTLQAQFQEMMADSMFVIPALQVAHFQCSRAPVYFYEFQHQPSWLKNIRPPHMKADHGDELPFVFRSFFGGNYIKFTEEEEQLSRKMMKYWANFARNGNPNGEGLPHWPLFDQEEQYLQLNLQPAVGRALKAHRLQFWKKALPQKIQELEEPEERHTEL
UniProt P23141, 18-567 limits assumed: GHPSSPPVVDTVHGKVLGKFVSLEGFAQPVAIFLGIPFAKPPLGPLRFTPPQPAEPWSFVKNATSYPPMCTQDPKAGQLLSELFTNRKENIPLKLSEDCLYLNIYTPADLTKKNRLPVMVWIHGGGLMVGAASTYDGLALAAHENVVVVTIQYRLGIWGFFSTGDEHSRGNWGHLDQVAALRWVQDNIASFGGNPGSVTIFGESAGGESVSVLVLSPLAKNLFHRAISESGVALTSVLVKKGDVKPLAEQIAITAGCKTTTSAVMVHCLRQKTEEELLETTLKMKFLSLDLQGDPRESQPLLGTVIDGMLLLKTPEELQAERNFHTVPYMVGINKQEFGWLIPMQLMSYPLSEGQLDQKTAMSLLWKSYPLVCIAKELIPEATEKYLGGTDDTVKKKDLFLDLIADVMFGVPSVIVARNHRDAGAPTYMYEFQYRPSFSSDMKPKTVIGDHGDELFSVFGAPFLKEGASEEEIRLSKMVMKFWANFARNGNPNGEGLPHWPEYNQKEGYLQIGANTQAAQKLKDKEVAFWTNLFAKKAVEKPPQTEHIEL
UniProt P30405, 45-207 limits assumed: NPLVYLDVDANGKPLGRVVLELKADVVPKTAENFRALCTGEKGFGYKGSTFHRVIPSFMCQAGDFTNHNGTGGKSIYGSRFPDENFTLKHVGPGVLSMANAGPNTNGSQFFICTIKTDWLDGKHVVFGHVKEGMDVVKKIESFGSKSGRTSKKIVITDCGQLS
UniProt P45877, 24-212 limits assumed: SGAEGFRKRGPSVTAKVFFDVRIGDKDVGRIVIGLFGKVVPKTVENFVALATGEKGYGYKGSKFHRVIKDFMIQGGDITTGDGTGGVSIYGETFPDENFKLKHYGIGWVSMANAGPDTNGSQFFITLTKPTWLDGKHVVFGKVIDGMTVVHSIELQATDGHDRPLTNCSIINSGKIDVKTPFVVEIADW
UniProt Q96BP3, 473-646 limits assumed: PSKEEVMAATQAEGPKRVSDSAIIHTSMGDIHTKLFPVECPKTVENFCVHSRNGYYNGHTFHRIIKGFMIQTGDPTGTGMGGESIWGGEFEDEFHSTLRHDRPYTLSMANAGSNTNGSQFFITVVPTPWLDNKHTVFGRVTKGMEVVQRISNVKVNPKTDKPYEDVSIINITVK
UniProt O43447, whole entry: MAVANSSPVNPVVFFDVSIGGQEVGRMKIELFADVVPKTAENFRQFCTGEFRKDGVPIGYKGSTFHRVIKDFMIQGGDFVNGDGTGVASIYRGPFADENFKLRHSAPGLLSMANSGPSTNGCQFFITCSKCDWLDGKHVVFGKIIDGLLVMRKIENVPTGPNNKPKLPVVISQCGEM
UniProt P62937, whole entry: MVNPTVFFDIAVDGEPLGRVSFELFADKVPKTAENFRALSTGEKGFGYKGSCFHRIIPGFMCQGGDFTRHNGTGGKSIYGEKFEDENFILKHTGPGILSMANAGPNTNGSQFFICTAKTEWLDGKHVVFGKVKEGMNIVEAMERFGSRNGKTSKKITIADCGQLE
UniProt Q9UNP9, 131-301 limits assumed: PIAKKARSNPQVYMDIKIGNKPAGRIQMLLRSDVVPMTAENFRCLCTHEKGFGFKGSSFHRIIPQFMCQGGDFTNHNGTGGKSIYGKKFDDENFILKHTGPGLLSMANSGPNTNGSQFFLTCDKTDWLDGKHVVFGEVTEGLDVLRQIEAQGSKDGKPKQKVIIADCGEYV
UniProt Q08752, 1-183 limits assumed: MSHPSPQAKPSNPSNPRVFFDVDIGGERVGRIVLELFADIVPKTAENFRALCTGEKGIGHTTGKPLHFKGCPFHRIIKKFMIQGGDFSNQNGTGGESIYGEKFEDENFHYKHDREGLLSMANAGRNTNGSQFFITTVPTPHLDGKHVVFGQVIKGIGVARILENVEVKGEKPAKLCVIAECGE
UniProt Q9Y3C6, whole entry: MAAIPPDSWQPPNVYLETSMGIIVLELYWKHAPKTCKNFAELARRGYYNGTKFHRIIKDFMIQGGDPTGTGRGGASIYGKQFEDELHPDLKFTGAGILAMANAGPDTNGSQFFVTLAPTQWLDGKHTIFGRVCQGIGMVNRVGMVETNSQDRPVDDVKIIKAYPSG
UniProt P30414, 7-179 limits assumed: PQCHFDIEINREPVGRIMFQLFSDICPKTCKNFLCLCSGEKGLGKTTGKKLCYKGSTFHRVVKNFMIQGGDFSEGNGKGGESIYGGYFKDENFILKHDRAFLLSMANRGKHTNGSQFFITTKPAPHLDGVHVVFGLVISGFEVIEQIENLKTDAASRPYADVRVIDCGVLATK
UniProt P23284, 34-216 limits assumed: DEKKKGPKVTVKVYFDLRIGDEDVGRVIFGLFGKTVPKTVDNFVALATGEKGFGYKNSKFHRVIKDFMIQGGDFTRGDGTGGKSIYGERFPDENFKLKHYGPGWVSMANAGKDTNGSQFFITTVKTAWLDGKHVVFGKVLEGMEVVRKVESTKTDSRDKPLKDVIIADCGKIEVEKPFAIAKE
UniProt Q9H2H8, whole entry: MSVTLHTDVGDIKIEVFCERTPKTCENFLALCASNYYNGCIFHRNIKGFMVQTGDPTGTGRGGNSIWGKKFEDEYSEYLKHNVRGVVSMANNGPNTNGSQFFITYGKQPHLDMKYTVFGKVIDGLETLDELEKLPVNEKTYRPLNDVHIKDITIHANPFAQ

Assays:
HeLa cells [1] = assay: Fluorescence microscopy of Cy5-conjugated compounds
[2] = In vitro ester pro-drug stability, buffer only; set-up: unit: %; conditions: Tris-HCl (9a), three replicate columns; for Di-acid: share of di-acid species; for Di-ester: share of di-ester species; for Mono-ester: share of mono-ester species
CES2 = CES2 (Homo sapiens, UniProt O00748); assay: In vitro esterase activity on ester pro-drugs; set-up: Di-ester: unit not given here; conditions: CES2 (9c); three replicate columns
CES1 = CES1 (Homo sapiens, UniProt P23141); assay: In vitro esterase activity on ester pro-drugs; set-up: Di-ester: unit not given here; conditions: CES1 (9b); three replicate columns
CypD [3] = target: T1, CypD (Homo sapiens, UniProt P30405); assay: Chymotrypsin coupled prolyl-isomerase assay; format: biochemical; conditions: read-out: Wild-Type Cyclophilin Prolyl Isomerase Inhibition IC50 Values, CypD; wild-type CypD
HepG2 cells = assay: Cellular esterase activity on ester pro-drugs; set-up: Di-ester: unit: %; conditions: HepG2 intracellular (9h); three replicate columns
MEFs = assay: Cellular esterase activity on ester pro-drugs; set-up: Di-ester: unit not given here; conditions: SV40 MEF intracellular (9g); three replicate columns
A549 cells = assay: Cellular esterase activity on ester pro-drugs; set-up: Di-ester: unit not given here; conditions: for Di-acid / Di-ester / Mono-ester: A549 intracellular (9d), three replicate columns
HeLa cells [4] = assay: Cellular esterase activity on ester pro-drugs; set-up: Di-ester: unit not given here; conditions: Hela intracellular (9e); three replicate columns
HEK293T cells = assay: Cellular esterase activity on ester pro-drugs; set-up: Di-ester: unit not given here; conditions: HEK293T intracellular (9f); three replicate columns
CypC = CypC (Homo sapiens, UniProt P45877); assay: Chymotrypsin coupled prolyl-isomerase assay; format: biochemical; conditions: read-out: Wild-Type Cyclophilin Prolyl Isomerase Inhibition IC50 Values, CypC; wild-type CypC
PPWD1 = PPWD1 (Homo sapiens, UniProt Q96BP3); assay: Chymotrypsin coupled prolyl-isomerase assay; format: biochemical; conditions: read-out: Wild-Type Cyclophilin Prolyl Isomerase Inhibition IC50 Values, PPWD1; wild-type PPWD1
CypH = CypH (Homo sapiens, UniProt O43447); assay: Chymotrypsin coupled prolyl-isomerase assay; format: biochemical
CypA [5] = target: T2, CypA (Homo sapiens, UniProt P62937); assay: Chymotrypsin coupled prolyl-isomerase assay; format: biochemical; conditions: read-out: Wild-Type Cyclophilin Prolyl Isomerase Inhibition IC50 Values, CypA; wild-type CypA
CypE [6] = target: T3, CypE (Homo sapiens, UniProt Q9UNP9); assay: Chymotrypsin coupled prolyl-isomerase assay; format: biochemical; conditions: read-out: IC50 CypE; prolyl-isomerase inhibition, 5 nM cyclophilin
Cyp40 [7] = target: T4, Cyp40 (Homo sapiens, UniProt Q08752); assay: Chymotrypsin coupled prolyl-isomerase assay; format: biochemical; conditions: read-out: Wild-Type Cyclophilin Prolyl Isomerase Inhibition IC50 Values, Cyp40; wild-type Cyp40
PPIL1 [8] = target: T5, PPIL1 (Homo sapiens, UniProt Q9Y3C6); assay: Chymotrypsin coupled prolyl-isomerase assay; format: biochemical; conditions: read-out: Wild-Type Cyclophilin Prolyl Isomerase Inhibition IC50 Values, PPIL1; wild-type PPIL1
NKTR = NKTR (Homo sapiens, UniProt P30414); assay: Chymotrypsin coupled prolyl-isomerase assay; format: biochemical
PPIL1 [9] = target: T5, PPIL1; assay: Competition anisotropy binding assay with A26-Fl; conditions: read-out: Ki PPIL1; FP competition with 0.5 nM A26-Fl, 24 h
CypB [10] = target: T6, CypB (Homo sapiens, UniProt P23284); assay: Competition anisotropy binding assay with A26-Fl; conditions: read-out: Ki CypB; FP competition with 0.5 nM A26-Fl, 24 h
CypD [11] = target: T1, CypD; assay: Competition anisotropy binding assay with A26-Fl; conditions: read-out: Ki CypD; FP competition with 0.5 nM A26-Fl, 24 h
CypA [12] = target: T2, CypA; assay: Competition anisotropy binding assay with A26-Fl; conditions: read-out: Ki CypA; FP competition with 0.5 nM A26-Fl, 24 h
CypE [13] = target: T3, CypE; assay: Competition anisotropy binding assay with A26-Fl; conditions: read-out: Ki CypE; FP competition with 0.5 nM A26-Fl, 24 h
PPIL3 = PPIL3 (Homo sapiens, UniProt Q9H2H8); assay: Competition anisotropy binding assay with A26-Fl; conditions: read-out: Ki PPIL3; FP competition with 0.5 nM A26-Fl, 24 h
Cyp40 [14] = target: T4, Cyp40; assay: Competition anisotropy binding assay with A26-Fl
CypB [15] = target: T6, CypB; conditions: read-out: Wild-Type Cyclophilin Prolyl Isomerase Inhibition IC50 Values, CypB; wild-type CypB
[16] = read-out: Ki Cyp40, FP competition with 0.5 nM A26-Fl, 24 h

CCOC(=O)C(Cc1ccc(-c2ccc(C[C@H]3NC(=O)[C@@]4(Cc5ccccc5)CCCN(C4)C(=O)/C=C/C(=O)NCC[C@H](C(=O)NCCNC(=O)CCCCCN4C(=CC=CC=CC5=[N+](C)c6ccccc6C5(C)C)C(C)(C)c5ccccc54)NC(=O)Cc4ccccc4CNC3=O)cc2)cc1)C(=O)OCC
plasma membrane permeability / mitochondrial localization (in words) (HeLa cells [1]): good mitochondrial localization | Di-acid [2]: 0 | Di-ester [2]: 100 | Mono-ester [2]: 0 | Di-acid (CES2): 1 and 2 (2×) | Di-ester (CES2): 23 and 21 and 20 | Mono-ester (CES2): 75 and 76 and 77 | Di-acid (CES1): 62 and 72 and 76 | Di-ester (CES1): 12 and 11 and 10 | Mono-ester (CES1): 24 and 16 and 12 | pIC50 (CypD [3]): < 5.70 | Di-acid (HepG2 cells): 18 and 16 and 17 | Di-ester (HepG2 cells): 58 and 61 and 60 | Mono-ester (HepG2 cells): 23 (2×) and 22 | Di-acid (MEFs): 46 and 48 and 50 | Di-ester (MEFs): 32 and 30 and 27 | Mono-ester (MEFs): 21 (2×) and 22 | intracellular conversion to di-acid (in words) (A549 cells; A549, HeLa, HEK293T, HepG2, MEFs): readily converted to the corresponding di-acids intracellularly | Di-acid (A549 cells): 81 and 82 and 75 | Di-ester (A549 cells): 7 and 8 (2×) | Mono-ester (A549 cells): 11 and 9 and 16 | Di-acid (HeLa cells [4]): 63 (2×) and 66 | Di-ester (HeLa cells [4]): 10 and 9 and 11 | Mono-ester (HeLa cells [4]): 26 and 24 and 25 | Di-acid (HEK293T cells): 19 and 16 and 17 | Di-ester (HEK293T cells): 66 and 69 and 68 | Mono-ester (HEK293T cells): 14

CCOC(=O)CC(CC(=O)OCC)c1ccc(-c2ccc(C[C@H]3NC(=O)[C@@]4(Cc5ccccc5)CCCN(C4)C(=O)/C=C/C(=O)NCC[C@H](C(=O)NCCNC(=O)CCCCCN4C(=CC=CC=CC5=[N+](C)c6ccccc6C5(C)C)C(C)(C)c5ccccc54)NC(=O)Cc4ccccc4CNC3=O)cc2)cc1
plasma membrane permeability / mitochondrial localization (in words) (HeLa cells [1]): good mitochondrial localization | Di-acid [2]: 0 | Di-ester [2]: 100 | Mono-ester [2]: 0 | Di-acid (CES2): 1 | Di-ester (CES2): 27 and 29 (2×) | Mono-ester (CES2): 72 and 71 (2×) | Di-acid (CES1): 38 and 46 and 45 | Di-ester (CES1): 11 and 8 (2×) | Mono-ester (CES1): 52 and 46 and 48 | pIC50 (CypD [3]): < 5.70 | Di-acid (HepG2 cells): 3 | Di-ester (HepG2 cells): 63 (2×) and 62 | Mono-ester (HepG2 cells): 34 (2×) and 35 | Di-acid (MEFs): 3 | Di-ester (MEFs): 43 and 41 and 46 | Mono-ester (MEFs): 54 and 56 and 52 | Di-acid (A549 cells): 3 (2×) and 4 | Di-ester (A549 cells): 19 and 20 (2×) | Mono-ester (A549 cells): 77 (2×) and 76 | Di-acid (HeLa cells [4]): 6 and 8 and 5 | Di-ester (HeLa cells [4]): 30 and 29 and 44 | Mono-ester (HeLa cells [4]): 64 and 63 and 51 | Di-acid (HEK293T cells): 1 | Di-ester (HEK293T cells): 53 and 51 and 54 | Mono-ester (HEK293T cells): 46 and 48 and 45

CC(=O)c1ccc(-c2ccc(C[C@@H]3NC(=O)[C@]4(Cc5ccccc5)CCCN(C4)C(=O)/C=C/C(=O)NCC[C@@H](C(N)=O)NC(=O)Cc4ccccc4CNC3=O)cc2)cc1B(O)O
pIC50 (CypC): < 4.30 | pIC50 (PPWD1): 4.52 | pIC50 (CypD [3]): 5.40 | pIC50 (CypH; read-out: IC50 CypH, prolyl-isomerase inhibition, 5 nM cyclophilin): 4.30 | pIC50 (CypH; read-out: Wild-Type Cyclophilin Prolyl Isomerase Inhibition IC50 Values, CypH, wild-type CypH): 4.30 | pIC50 (CypA [5]): 5.15 | pIC50 (CypE [6]): 6.05 | pIC50 (Cyp40 [7]): 5.15 | pIC50 (PPIL1 [8]): 5.52 | pIC50 (NKTR; read-out: IC50 NKTR, prolyl-isomerase inhibition, 5 nM cyclophilin): 4.30 | pIC50 (NKTR; read-out: Wild-Type Cyclophilin Prolyl Isomerase Inhibition IC50 Values, NKTR, wild-type NKTR): 4.30 | pKi (PPIL1 [9]): 5.47 | pKi (CypB [10]): < 5.00 | pKi (CypD [11]): 5.05 | pKi (CypA [12]): < 5.00 | pKi (CypE [13]): 6.00 | pKi (PPIL3): < 5.00 | pKi (Cyp40 [14]; [16]): 5.57 | pIC50 (CypB [15]): 5.22

CC(=O)c1cc(-c2ccc(C[C@@H]3NC(=O)[C@]4(Cc5ccccc5)CCCN(C4)C(=O)/C=C/C(=O)NCC[C@@H](C(N)=O)NC(=O)Cc4ccccc4CNC3=O)cc2)ccc1B(O)O
pKi (PPIL1 [9]): 5.12 | pKi (CypB [10]): < 5.00 | pKi (CypD [11]): 5.77 | pKi (CypA [12]): < 5.00 | pKi (CypE [13]): 6.03 | pKi (PPIL3): < 5.00 | pKi (Cyp40 [14]; [16]): < 5.00

NC(=O)[C@@H]1CCNC(=O)/C=C/C(=O)N2CCC[C@](Cc3ccccc3)(C2)C(=O)N[C@@H](Cc2ccc(-c3ccc(B(O)O)c(C=O)c3)cc2)C(=O)NCc2ccccc2CC(=O)N1
pKi (PPIL1 [9]): < 5.00 | pKi (CypB [10]): 5.54 | pKi (CypD [11]): 6.10 | pKi (CypA [12]): 5.59 | pKi (CypE [13]): 6.30 | pKi (PPIL3): < 5.00 | pKi (Cyp40 [14]): < 5.00

pIC50, pKi: −log10 of the molar value. “And” between values parts separate entries of the source, which are not always exact repeats. Identical values can stand only once. Like-named read-outs stand apart in the source and are kept apart here.
